Amino acid sequences for entries named in this document (tags omitted).
UniProt P35462, whole entry: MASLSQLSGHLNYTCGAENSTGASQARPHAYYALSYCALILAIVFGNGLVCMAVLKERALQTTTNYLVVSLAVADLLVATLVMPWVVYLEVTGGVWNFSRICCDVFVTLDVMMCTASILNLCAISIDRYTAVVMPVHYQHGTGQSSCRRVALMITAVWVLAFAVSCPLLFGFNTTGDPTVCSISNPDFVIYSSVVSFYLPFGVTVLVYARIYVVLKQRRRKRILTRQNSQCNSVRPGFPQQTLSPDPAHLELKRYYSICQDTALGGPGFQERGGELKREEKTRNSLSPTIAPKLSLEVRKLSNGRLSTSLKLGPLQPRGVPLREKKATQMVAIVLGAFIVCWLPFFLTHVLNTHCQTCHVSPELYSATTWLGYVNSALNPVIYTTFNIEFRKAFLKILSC

In patent publication US8829029B2, “Dual modulators of 5HT2A and D3 receptors” (Hoffmann-La Roche Inc., priority 2008, dated 2014):

Biological target: human D3 dopamine receptor (Homo sapiens (Human), UniProt P35462)
Test: Radioligand binding ([3H]-spiperone) to cloned human D3 receptor expressed in HEK-293 EBNA cells
Details: membranes of transfected HEK-293 EBNA cells, 0.5 nM [3H]-spiperone, 1 h at RT
Procedure: The ability of the compounds to bind to the 5-HT2A, D3 and D2 receptors was determined using radioligand binding to cloned receptors selectively expressed in HEK-293 EBNA cells.
HEK-293 EBNA cells were transiently transfected with expression plasmids encoding for the human D2 or D3 dopamine- or for the human 5-HT2A serotonin receptor, respectively. The cells were harvested 48 h post-transfection, washed three times with cold PBS and stored at −80° C. prior to use. The pellet was suspended in cold 50 mM Tris-HCl buffer containing 10 mM EDTA (pH 7.4) and homogenized with a Polytron (Kinematica AG, Basel, Switzerland) for 20-30 sec at 12,000 rpm. After centrifugation at 48,000×g for 30 min at 4° C., the pellet was resuspended in cold 10 mM Tris-HCl buffer containing 0.1 mM EDTA (pH 7.4), homogenized, and centrifuged as above. This pellet was further resuspended in a smaller volume of ice cold 10 mM Tris-HCl buffer containing 0.1 mM EDTA (pH 7.4) and homogenized with a Polytron for 20-30 sec at 12,000 rpm. The protein content of this homogenate was determined with the Bio-Rad (Bradford) Protein Assay (Biorad Laboratories GmbH, München, Germany) according to the instructions of the manufacturer using gamma globulin as the standard. This homogenate was stored at −80° C. in aliquots and thawed immediately prior to use.
Aliquots of membrane preparations were thawed at RT, resuspended in assay buffer (D2, D3: 50 mM Tris-HCl, 120 mM NaCl, 5 mM MgCl2, 1 mM EDTA, 5 mM KCl, 1.5 mM CaCl2, pH=7.4; 5-HT2A: 50 mM Tris-HCl, 10 mM MgCl2, 1 mM EGTA, pH=7.4), homogenized with a Polytron for 20-30 sec at 12,000 rpm and adjusted to a final concentration of approximately 7.5 μg protein/well (D2, D3) and 15 μg protein/well (5-HT2A), respectively.
The binding affinity (Ki) of the compounds was determined using radioligand binding. Membranes were incubated in a total volume of 200 μl with a fixed concentration of radioligand (final concentration approximately 0.7 nM [^3H]-spiperone for D2, 0.5 nM [^3H]-spiperone for D3, and 1.1 nM [^3H]-ketanserin for 5-HT2A) and ten concentrations of test compound in ranging between 10 μM-0.1 nM for 1 h at RT. At the end of the incubation, the reaction mixtures were filtered on to unifilter 96-well white microplates with bonded GF/C filters (Packard BioScience, Zürich, Switzerland; preincubated for 1 h in 0.1% polyethylenimine (PEI) in assay buffer) with a Filtermate 196 harvester (Packard BioScience) and washed 3 times with cold assay buffer. The nonspecific binding was determined with equally composed reaction mixtures in the presence of 10 μM unlabelled spiperone. Per well 45 μl of Microscint 40 (Perkin Elmer, Schwerzenbach, Switzerland) was added, plates for sealed, shaken for 20 min and counted for 3 min on a Topcount Microplate Scintillation Counter (Canberra Packard SA, Zürich, Switzerland) with quenching correction.
The CPM value for each duplicate of a concentration of competing compound was averaged (y1), then the % specific binding was calculated according to the equation (((y1−non-specific)/(total binding−non-specific))×100). Graphs were plotted with the % specific binding using XLfit, a curve fitting program that iteratively plots the data using Levenburg Marquardt algorithm. […] The affinity constant (Ki) was calculated using the Cheng-Prusoff equation Ki=(IC50/1+([L]/Kd), where [L] is the concentration of radioligand and Kd is the dissociation constant of the radioligand at the receptor as determined by the saturation isotherm.

Row | SMILES | Ki
1 | O=C(N[C@H]1CC[C@H](CCN2CCC(c3noc4cc(F)ccc34)CC2)CC1)c1ccc(N2CCOCC2)cc1 [Example 4, N-trans-(4-{2-[4-(6-Fluoro-benzo[d]isoxazol-3-yl)-piperidin-1-yl]-ethyl}-cyclohexyl)-4-morpholin-4-yl-benzamide] | 28.2 nM
2 | O=C(N[C@H]1CC[C@H](CCN2CCC(c3noc4cc(F)ccc34)CC2)CC1)c1ccnc(N2CCOCC2)c1 [Example 12, N-trans (4-{2-[4-(6-Fluoro-benzo[d]isoxazol-3-yl)-piperidin-1-yl]-ethyl}-cyclohexyl)-2-morpholin-4-yl-isonicotinamide] | 5.75 nM
3 | O=C(N[C@H]1CC[C@H](CCN2CCC(c3noc4ccc(F)cc34)CC2)CC1)c1ccc2c(c1)OCO2 [Example 30, Benzo[1,3]dioxole-5-carboxylic acid trans (4-{2-[4-(5-fluoro-benzo[d]isoxazol-3-yl)-piperidin-1-yl]-ethyl}-cyclohexyl)-amide] | 3.86 nM
4 | O=C(CC1CCCCO1)N[C@H]1CC[C@H](CCN2CCC(c3noc4cc(Cl)ccc34)CC2)CC1 (stereo partly drawn) [Example 34, N-trans (4-{2-[4-(6-Chloro-benzo[d]isoxazol-3-yl)-piperidin-1-yl]-ethyl}-cyclohexyl)-2-(tetrahydro-pyran-2-yl)-acetamide] | 10.7 nM
5 | O=C(C[C@@H]1CCCCO1)N[C@H]1CC[C@H](CCN2CCC(c3noc4cc(Cl)ccc34)CC2)CC1 [Example 34A, N-trans (4-{2-[4-(6-Chloro-benzo[d]isoxazol-3-yl)-piperidin-1-yl]-ethyl}-cyclohexyl)-2-(R)-tetrahydro-pyran-2-yl-acetamide] | 10.7 nM
